Assay: Selectivity index, ratio of CC50 for HFF to EC50 for HSV2 MS infected in HFF

Row | Compound | Ratio CC50/EC50
1 | Nc1ccn(C[C@@H](CO)OCP(=O)(O)O)c(=O)n1.O.O [CIDOFOVIR] | > 11
2 | Nc1nc2c(ncn2COCCO)c(=O)[nH]1 [ACYCLOVIR] | > 150

— ChEMBL document CHEMBL1649277, “Inhibition of herpesvirus replication by 5-substituted 4'-thiopyrimidine nucleosides” (Antimicrob Agents Chemother, 2009)
